## Measured affinities in a library of Ab-14 light chain variants

From the AlphaSeq antibody data of Li et al. 2023 (doi:10.1038/s41467-023-39022-2), copy in the FLAb collection.

Target: peptide PDVDLGDISGINAS, taken from heptad repeat 2 (HR2) of SARS-CoV-2 spike.

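Phage display of a naive human antibody library on the peptide gave the parent. These sequences belong to a second round, designed from the earlier measurements on random variants of the parent. Group labels follow the data file (Ctrl: baseline library sampled from a position-specific scoring matrix, with some repeated check sequences; Rand: our label for a block that the file lists under HC and that is probably the random mutants of the ten best first-round binders; GP: Gaussian process model; GPLM: also part of the Gaussian process libraries; HC: hill climbing; Gen: genetic algorithm; Gibbs: Gibbs sampling; a sequence that several methods proposed may carry one label only). The scFvs were displayed on barcoded MATa yeast, the peptide on MATalpha yeast. After mating in shaken culture at 30 °C for 16 h, diploids were selected and their barcode pairs sequenced. A regression on co-assayed BCL2-family reference pairs converts the normalised counts of each replicate to an apparent Kd. Mating was done six times.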

The variants keep the heavy chain, the linker and the frameworks of Ab-14 (scFv order VH, a 15-residue (Gly4Ser)3 linker, VL).
VH: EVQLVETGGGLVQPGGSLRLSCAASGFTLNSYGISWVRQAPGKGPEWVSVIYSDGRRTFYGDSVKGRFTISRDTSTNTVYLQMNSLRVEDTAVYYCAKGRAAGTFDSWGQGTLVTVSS
VL: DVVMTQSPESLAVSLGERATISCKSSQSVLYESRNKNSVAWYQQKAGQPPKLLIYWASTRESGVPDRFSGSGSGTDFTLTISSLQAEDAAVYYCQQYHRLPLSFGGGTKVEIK

Each variant is given by its three light chain CDRs, as the data file delimits them; those of the parent are KSSQSVLYESRNKNSVA, WASTRES, QQYHRLPLS. This list holds designs with at most six substitutions. Each Kd is an estimate from the mating assay, the geometric mean of the replicates in which the pair was seen; lower is stronger. Where no diploid with the target was found in any replicate, the entry reads "nd": below detection, most likely a poor binder, though not proof of it.

WLMQSVLYESRNKNSVA, HASLRED, QQYHRLPLS [GP_HC]: 7.0 nM (6 of 6 replicates; controls 2 of 18).
KSSQALLYESRNKNSVA, WASTREA, QDYHRLPNS [Ctrl]: 310 nM (2 of 6 replicates; controls 1 of 18).
HSSPSVEYESRNKNSVA, NASTRES, QQYHRLPLQ [GP_HC]: 1.5 nM (6 of 6 replicates; controls 1 of 18).
HLSWVMLYESRNKNSVA, NASTRES, QQYHRLPLS [GP_HC]: 940 pM (6 of 6 replicates; controls 2 of 18).
KISWSVLYESRNKNSVA, WASTRES, QQSHRNPLS [Ctrl]: nd (0 of 6 replicates; controls 1 of 18).
KSSQNVLYESTNPNSVA, MASTRES, QQYHRLPLS [Ctrl]: 8.7 nM (6 of 6 replicates; controls 0 of 18).
KVSQSWLYESRNKWSVA, NASTRES, QQYHRLPLS [GP_Gen]: 1.1 nM (6 of 6 replicates; controls 1 of 18).
YVSQSELYESRNKNSVA, NASTRES, QQYHRLPLS [GP_Gen]: 450 pM (6 of 6 replicates; controls 1 of 18).
KVSQSVEYEDRNKNSVA, MASQRNS, QQYHRLPLS [GP_Gibbs]: nd (0 of 6 replicates; controls 0 of 18).
KSGQGVLYESRNKDSVA, GASTRES, QQYHRLPLS [GPLM_HC]: 400 pM (6 of 6 replicates; controls 0 of 18).
KSSQSVLYESRNKNSVA, WASTREI, QQYHRLPLS [Ctrl]: 120 nM (3 of 6 replicates; controls 0 of 18).
KSSFSVLFESRNKNSVA, NASTRES, QQYHRLPLS [GP_HC]: 56 nM (6 of 6 replicates; controls 2 of 18).
KFSQSVLYESRNKNGVA, WASTRES, QQYHRLPLS [Ctrl]: 18 nM (6 of 6 replicates; controls 1 of 18).
KSSQSVLYESENKNSVA, WVSTRES, QTYHRLPLS [Ctrl]: 660 nM (1 of 6 replicates; controls 1 of 18).
KWSQLVLGESRNKSSVA, NASTREE, QQYHRLPLS [GP_Gibbs]: 16 nM (6 of 6 replicates; controls 2 of 18).
KSSQSVLFEHRNKNSVA, DASGRES, QQYWRLPLS [Rand]: 3.5 nM (6 of 6 replicates; controls 1 of 18).
KMSQSELYESRNKNSVA, DASTRES, QQYHRLPLS [GP_HC]: 850 pM (6 of 6 replicates; controls 3 of 18).
KSSQSVLYESRMWNSVA, DASTRES, QQYHRLPLS [Ctrl]: 1.6 nM (6 of 6 replicates; controls 3 of 18).
KSSQSVLPESRNKNSVA, QASTPES, QQYMRLPLS [Ctrl]: 2.6 nM (6 of 6 replicates; controls 0 of 18).
KFSTSRLNESRNKNSVA, WASTRHS, QQYHRLPLS [Ctrl]: 99 nM (6 of 6 replicates; controls 0 of 18).
KSSQSVLYESRNQNSIA, WASTRES, QQYHRLPLS [Ctrl]: 100 nM (6 of 6 replicates; controls 0 of 18).
KSSQSVLYESNNKNSVA, WASTRES, QQYYRLPLS [Ctrl]: 5.5 nM (6 of 6 replicates; controls 1 of 18).
KLSQSTLYESRNKNSVA, HASTRCS, QQYHRLPLS [GP_Gen]: 2.8 nM (6 of 6 replicates; controls 0 of 18).
KSCQAVNYESRNKNSVA, WASTRES, QQYHRLPLS [Ctrl]: 5.9 nM (6 of 6 replicates; controls 1 of 18).
KVLQSVLYESRNKNSVA, HASTRES, QQYHRLPLS [GP_HC]: 830 pM (6 of 6 replicates; controls 1 of 18).
KSSISYPYESRNKNSVA, AASTRES, QQYHRLPLS [GP_HC]: 92 nM (3 of 6 replicates; controls 0 of 18).
KSEQSVPYESRNKNSVA, NASTRES, QQYHRLPLS [GP_Gen]: 16 nM (6 of 6 replicates; controls 0 of 18).
KSSQSVLMESRNNNSVA, WASTRAS, QDYQRLPLS [Ctrl]: 74 nM (2 of 6 replicates; controls 0 of 18).
KVSHSYLLESRNKNSVA, EASTRES, QQYHRLPLS [GP_HC]: 1.1 nM (6 of 6 replicates; controls 1 of 18).
KQSDSVKQESRNKNSVA, DASTRES, QQYHRLPLS [GP_HC]: 1.4 nM (6 of 6 replicates; controls 1 of 18).
KFSQSVGYESRNKNSVA, NAQTRLE, QQYHRLPLS [GP_Gibbs]: 4.0 nM (6 of 6 replicates; controls 0 of 18).
KLSQSVWYESRNKNNVA, EASTRES, QQYHRLPLS [GP_Gen]: 530 pM (6 of 6 replicates; controls 0 of 18).
KFSQSWLYESRNKNSVA, NASQRES, QDYHRLPLS [GP_Gen]: 170 nM (1 of 6 replicates; controls 0 of 18).
KVPQSMLYESRNKNNVA, AASDRES, QQYHRLPLS [GP_Gibbs]: 940 pM (6 of 6 replicates; controls 2 of 18).
KSSQPVLYESRNKNSVA, WASTRER, QQYHRLPLS [Ctrl]: 77 nM (1 of 6 replicates; controls 0 of 18).
KFSQSVLYESRTSNQVA, NASTRES, QQYHRLPLS [GP_HC]: 1.4 nM (6 of 6 replicates; controls 0 of 18).
KISQSYLYESRNKNSVA, NASTRES, QQYHRLPLS [GP_Gen]: 550 pM (6 of 6 replicates; controls 1 of 18).
KSSQSVLYESRNKNSVA, NGSTRES, QQYHGLPLS [Ctrl]: 15 nM (6 of 6 replicates; controls 1 of 18).
KSSQSWSYESRNKNSVA, GASTRES, QQYHRLPLS [GP_HC]: 2.6 nM (6 of 6 replicates; controls 0 of 18).
KQSQSEGGESRNKNSVA, HASKRES, QQYHRLPLS [GP_Gibbs]: 11 nM (6 of 6 replicates; controls 1 of 18).
KSSQSMLYEERNKNSVA, SASTRES, QQYSRLPLS [Ctrl]: 6.6 nM (6 of 6 replicates; controls 1 of 18).
KSQSSVFYESRNKNSVA, NASTRES, QQYHRLPLS [Ctrl]: 4.7 nM (6 of 6 replicates; controls 1 of 18).
KMEQGVLYESRNKNSVA, GASCRES, QQYHRLPLS [GP_HC]: 580 pM (6 of 6 replicates; controls 4 of 18).
KLSQSYEYESRNKNSVA, NASTRLS, QQYHRLPLS [GP_Gen]: 670 pM (6 of 6 replicates; controls 2 of 18).
KFSQSVLYEDRNKNSVA, DASQRES, QQYHRLPLS [GP_Gen]: 500 pM (6 of 6 replicates; controls 3 of 18).
KSSWSFLYESRNKNSVA, DASTRES, QQYHRLPLS [GP_HC]: 12 nM (6 of 6 replicates; controls 0 of 18).
KSSQFVLYESRNKNSVA, WASTRES, QQYHRLPLS [Ctrl]: 270 nM (3 of 6 replicates; controls 0 of 18).
KSSGSVLGEDWNKNSVA, QASKRES, QQYHRLPLS [GP_Gibbs]: 6.3 nM (6 of 6 replicates; controls 1 of 18).
KSIQSVLYESDNKNSVA, QASTRCS, QQYHRLPLS [Ctrl]: 2.1 nM (6 of 6 replicates; controls 0 of 18).
KLSQSELYDSQNKNSVA, NASTRES, QQYHRLPLS [GP_HC]: 1.1 nM (6 of 6 replicates; controls 0 of 18).
KSSHSVGYESRNKNSVA, WASTREW, QQYHVLPLS [Ctrl]: 990 nM (3 of 6 replicates; controls 1 of 18).
KYEQSVLYESRNCNSVA, FASTRES, QQYHRLPLS [Ctrl]: 420 nM (6 of 6 replicates; controls 2 of 18).

The 4 strongest on average among those seen in every replicate, once more:

CDR-L1	CDR-L2	CDR-L3	group	apparent Kd	detected	signal with controls
KSGQGVLYESRNKDSVA	GASTRES	QQYHRLPLS	GPLM_HC	400 pM	6 of 6	0 of 18
YVSQSELYESRNKNSVA	NASTRES	QQYHRLPLS	GP_Gen	450 pM	6 of 6	1 of 18
KFSQSVLYEDRNKNSVA	DASQRES	QQYHRLPLS	GP_Gen	500 pM	6 of 6	3 of 18
KLSQSVWYESRNKNNVA	EASTRES	QQYHRLPLS	GP_Gen	530 pM	6 of 6	0 of 18

Background: pairings of all light chain designs with three empty control strains gave a value in 4% of cases (median 430 nM, 5th percentile 38 nM). Values in that range, when seen in few replicates, are hard to tell from nonspecific mating. Also given: how often the same scFv was detected with the empty control strains. The authors averaged sequences with at least three values out of six and counted those with two or fewer as poor binders. A sequence measured in both rounds can read differently, since the two assays cover different ranges. Of ten entries with the parent sequence, four were seen in most replicates (averages 2.2 nM to 240 nM), three in one and three in none, so single entries are noisy.